Results reported in BindingDB's records for doi:10.1007/bf02246453 (University of Turku, 1996).

Sequences of proteins named here, by UniProt entry; tags and fusion partners are left off.
UniProt P31652, whole entry: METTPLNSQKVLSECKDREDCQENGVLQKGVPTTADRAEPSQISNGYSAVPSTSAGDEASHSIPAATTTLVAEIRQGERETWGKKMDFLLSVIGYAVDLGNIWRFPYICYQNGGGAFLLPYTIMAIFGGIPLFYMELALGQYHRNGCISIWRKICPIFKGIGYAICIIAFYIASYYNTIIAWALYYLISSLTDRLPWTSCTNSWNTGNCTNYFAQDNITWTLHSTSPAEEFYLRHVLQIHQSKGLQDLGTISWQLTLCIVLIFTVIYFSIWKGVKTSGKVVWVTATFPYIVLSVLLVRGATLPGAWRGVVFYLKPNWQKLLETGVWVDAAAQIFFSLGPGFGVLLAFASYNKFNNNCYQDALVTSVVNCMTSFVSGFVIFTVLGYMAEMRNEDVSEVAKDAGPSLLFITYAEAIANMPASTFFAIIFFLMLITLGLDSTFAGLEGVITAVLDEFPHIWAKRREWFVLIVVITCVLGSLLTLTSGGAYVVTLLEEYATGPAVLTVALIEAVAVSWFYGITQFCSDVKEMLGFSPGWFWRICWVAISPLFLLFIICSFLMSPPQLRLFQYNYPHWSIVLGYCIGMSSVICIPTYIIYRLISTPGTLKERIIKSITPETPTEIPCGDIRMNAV
UniProt P14842, whole entry: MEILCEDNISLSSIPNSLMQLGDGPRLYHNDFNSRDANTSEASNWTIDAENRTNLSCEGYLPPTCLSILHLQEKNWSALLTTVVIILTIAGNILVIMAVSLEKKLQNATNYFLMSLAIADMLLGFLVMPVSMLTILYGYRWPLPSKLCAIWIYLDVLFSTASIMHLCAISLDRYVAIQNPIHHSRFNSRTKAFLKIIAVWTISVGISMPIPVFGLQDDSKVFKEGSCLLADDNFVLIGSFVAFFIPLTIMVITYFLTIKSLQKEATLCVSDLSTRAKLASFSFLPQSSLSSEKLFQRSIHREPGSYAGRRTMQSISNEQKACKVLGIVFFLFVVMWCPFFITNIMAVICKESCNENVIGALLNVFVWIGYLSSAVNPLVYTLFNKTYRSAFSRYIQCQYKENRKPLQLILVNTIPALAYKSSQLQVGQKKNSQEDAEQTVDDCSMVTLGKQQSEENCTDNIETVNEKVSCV

Assays:
[1] = target: Sodium-dependent serotonin transporter (Rattus norvegicus, UniProt P31652)
[2] = target: T1, 5-hydroxytryptamine receptor 2C (Rattus norvegicus, UniProt P08909)
T1 sequence (P08909 whole entry): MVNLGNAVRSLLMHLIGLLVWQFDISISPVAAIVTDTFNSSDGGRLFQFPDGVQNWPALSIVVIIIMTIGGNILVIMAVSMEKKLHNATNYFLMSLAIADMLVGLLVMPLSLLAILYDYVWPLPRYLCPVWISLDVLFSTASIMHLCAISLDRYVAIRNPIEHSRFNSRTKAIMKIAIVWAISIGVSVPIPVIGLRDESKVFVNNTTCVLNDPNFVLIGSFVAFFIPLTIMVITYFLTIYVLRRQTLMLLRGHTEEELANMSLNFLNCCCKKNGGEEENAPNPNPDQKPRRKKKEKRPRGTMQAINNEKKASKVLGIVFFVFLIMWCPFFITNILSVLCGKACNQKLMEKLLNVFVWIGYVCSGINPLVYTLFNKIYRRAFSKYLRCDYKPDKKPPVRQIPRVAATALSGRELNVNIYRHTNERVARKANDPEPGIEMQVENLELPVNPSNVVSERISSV

[3] = target: 5-hydroxytryptamine receptor 2A (Rattus norvegicus, UniProt P14842)

Ki [1]	Ki [2]	Ki [3]	SMILES
1000 nM	1000 nM		CN1Cc2c(N)cccc2[C@H](c2ccccc2)C1 [(+/-)-2-Methyl-4-phenyl-1,2,3,4-tetrahydro-isoquinolin-8-ylamine]
		1 nM	Clc1ccc2c(c1)C(N1CCNCC1)=Nc1ccccc1O2
		6 nM	O=c1n(CCCN2CCN(c3cccc(Cl)c3)CC2)nc2ccccn12 [2-{3-[4-(3-chlorophenyl)piperazin-1-yl]propyl}[1,2,4]triazolo[4,3-a]pyridin-3(2H)-one]

SMILES	Ki [1]	Ki [2]	Ki [3]
CN(C)CCCN1c2ccccc2CCc2ccccc21			160 nM
